From paper PMC6271717, “Chemical Composition, Biological and Cytotoxic Activities of Plant Extracts and Compounds Isolated from Ferula lutea” (Molecules, 2014)

Biological target: T1, Porcine pancreatic α-amylase (Sus scrofa, UniProt P00690)
T1 sequence (P00690 16-511): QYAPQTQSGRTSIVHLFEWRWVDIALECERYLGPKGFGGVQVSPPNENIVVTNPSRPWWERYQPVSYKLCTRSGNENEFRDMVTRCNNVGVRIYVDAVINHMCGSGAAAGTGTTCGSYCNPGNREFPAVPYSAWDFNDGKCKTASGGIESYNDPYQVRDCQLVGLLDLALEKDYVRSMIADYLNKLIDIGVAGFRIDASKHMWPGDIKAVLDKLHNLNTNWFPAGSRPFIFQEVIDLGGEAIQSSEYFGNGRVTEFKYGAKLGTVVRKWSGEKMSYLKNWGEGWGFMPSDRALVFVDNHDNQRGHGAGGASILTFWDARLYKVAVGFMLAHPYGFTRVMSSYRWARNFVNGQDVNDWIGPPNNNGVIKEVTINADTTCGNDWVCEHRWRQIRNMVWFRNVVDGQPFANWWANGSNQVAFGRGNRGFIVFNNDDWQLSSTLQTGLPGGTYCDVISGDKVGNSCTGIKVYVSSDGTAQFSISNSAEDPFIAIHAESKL
Assay: Antidiabetic activity (α-amylase inhibition)
Type: biochemical
Conditions: at 20 µg/mL; na: not active at 1,000 µg/mL

Compound: C[C@H]1O[C@H](O[C@H]2[C@H](O)[C@@H](O)[C@@H](O[C@H]3[C@H](O)[C@@H](O)C(O)O[C@@H]3CO)O[C@@H]2CO)[C@H](O)[C@@H](O)[C@@H]1N[C@H]1C=C(CO)[C@@H](O)[C@H](O)[C@H]1O (stereo partly shown) [Acarbose]
- Antidiabetic Activity, percent inhibition: 30%
